Experimental data from ChEMBL document CHEMBL4813985, “Lead optimization generates selenium-containing miconazole CYP51 inhibitors with improved pharmacological profile for the treatment of fungal infections” (Eur J Med Chem, 2021).

Test system: Candida albicans
Experiment: Ratio of MFC for Candida albicans CPCC400616 incubated for 48 hrs followed by culturing on PDA plate for 24 hrs to MIC for Candida albicans CPCC400616 measured after 24 hrs
Format: functional

Row | Compound | Ratio
1 | CCc1ccccc1[Se]C(Cn1ccnc1)c1ccc(F)cc1F (configuration not stated) | 4
2 | Fc1ccc([Se]C(Cn2ccnc2)c2ccc(F)cc2F)cc1 (configuration not stated) | 4
